By UniProt entry, the sequences of proteins in these tests, tags left out.
UniProt Q96LA8, whole entry: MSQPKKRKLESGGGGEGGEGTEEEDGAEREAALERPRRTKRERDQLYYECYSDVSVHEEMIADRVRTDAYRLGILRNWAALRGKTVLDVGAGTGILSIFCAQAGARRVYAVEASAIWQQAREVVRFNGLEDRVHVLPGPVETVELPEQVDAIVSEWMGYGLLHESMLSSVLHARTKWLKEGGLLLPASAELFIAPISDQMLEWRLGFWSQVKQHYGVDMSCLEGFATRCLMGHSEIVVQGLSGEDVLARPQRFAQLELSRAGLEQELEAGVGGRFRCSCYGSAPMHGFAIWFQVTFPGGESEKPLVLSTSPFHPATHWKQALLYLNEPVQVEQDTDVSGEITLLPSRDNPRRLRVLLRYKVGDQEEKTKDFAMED
UniProt P15056, whole entry: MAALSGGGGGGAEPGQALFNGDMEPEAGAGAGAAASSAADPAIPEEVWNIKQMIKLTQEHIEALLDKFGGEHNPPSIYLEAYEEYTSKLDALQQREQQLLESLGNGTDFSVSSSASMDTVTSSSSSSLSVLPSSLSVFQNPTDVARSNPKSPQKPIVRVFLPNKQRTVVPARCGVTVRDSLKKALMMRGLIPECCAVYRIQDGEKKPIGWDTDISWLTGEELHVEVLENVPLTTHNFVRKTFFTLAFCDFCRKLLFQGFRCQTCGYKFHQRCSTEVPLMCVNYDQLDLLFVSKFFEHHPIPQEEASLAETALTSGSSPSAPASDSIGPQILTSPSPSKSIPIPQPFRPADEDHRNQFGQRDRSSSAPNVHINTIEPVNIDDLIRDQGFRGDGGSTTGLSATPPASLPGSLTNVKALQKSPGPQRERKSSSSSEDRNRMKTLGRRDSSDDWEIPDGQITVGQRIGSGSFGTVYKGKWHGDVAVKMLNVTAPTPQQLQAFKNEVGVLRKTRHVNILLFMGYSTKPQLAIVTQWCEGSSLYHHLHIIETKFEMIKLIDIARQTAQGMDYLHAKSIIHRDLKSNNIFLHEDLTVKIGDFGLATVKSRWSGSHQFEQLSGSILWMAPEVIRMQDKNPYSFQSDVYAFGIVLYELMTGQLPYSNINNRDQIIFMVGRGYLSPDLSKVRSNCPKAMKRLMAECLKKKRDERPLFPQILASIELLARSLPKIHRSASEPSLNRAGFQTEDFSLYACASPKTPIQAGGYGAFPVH

In ChEMBL document CHEMBL5444388, “Affinity Phenotypic Cellular Literature for EUbOPEN Chemogenomic Library” (2024):

Assays:
[1] = target: T1, Protein arginine N-methyltransferase 6 (Homo sapiens, UniProt Q96LA8)
[2] = target: T1, Protein arginine N-methyltransferase 6; remark: listed apart in the source
[3] = target: Serine/threonine-protein kinase B-raf (Homo sapiens, UniProt P15056)

IC50 [1]	IC50 [2]	Compound	IC50 [3]
> 10 µM	> 10 µM	Cc1cc(C)cc([C@H]2c3cc(C)ccc3NC(=O)CN2C(=O)c2ccc(Br)s2)c1	
		CN(C)CCOc1ccc(-c2nc(-c3ccncc3)c(-c3ccc4c(c3)CC/C4=N\O)[nH]2)cc1 [SB590885]	> 13 µM
